Laboratory results reported in PMC2949283 (The Biochemical journal, 2009).

Sequences of proteins named here, by UniProt entry; tags and fusion partners are left off. Residues count along the entry.
UniProt P22303, 32-614: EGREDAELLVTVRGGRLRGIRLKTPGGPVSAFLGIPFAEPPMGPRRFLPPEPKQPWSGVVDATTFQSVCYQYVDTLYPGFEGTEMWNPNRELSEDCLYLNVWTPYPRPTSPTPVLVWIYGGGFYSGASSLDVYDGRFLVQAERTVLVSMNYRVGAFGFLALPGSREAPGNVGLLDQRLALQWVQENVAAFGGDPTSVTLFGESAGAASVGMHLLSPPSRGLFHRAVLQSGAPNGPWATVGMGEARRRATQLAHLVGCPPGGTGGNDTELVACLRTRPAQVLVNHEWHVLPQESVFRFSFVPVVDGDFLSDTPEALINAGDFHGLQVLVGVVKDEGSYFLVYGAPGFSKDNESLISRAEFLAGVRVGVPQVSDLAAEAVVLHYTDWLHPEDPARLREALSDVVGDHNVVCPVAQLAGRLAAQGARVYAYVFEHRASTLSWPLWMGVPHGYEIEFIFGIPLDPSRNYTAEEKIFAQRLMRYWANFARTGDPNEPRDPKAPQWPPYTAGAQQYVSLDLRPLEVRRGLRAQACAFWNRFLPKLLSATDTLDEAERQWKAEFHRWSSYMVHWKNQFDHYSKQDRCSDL
UniProt P22303, 32-614 W117A: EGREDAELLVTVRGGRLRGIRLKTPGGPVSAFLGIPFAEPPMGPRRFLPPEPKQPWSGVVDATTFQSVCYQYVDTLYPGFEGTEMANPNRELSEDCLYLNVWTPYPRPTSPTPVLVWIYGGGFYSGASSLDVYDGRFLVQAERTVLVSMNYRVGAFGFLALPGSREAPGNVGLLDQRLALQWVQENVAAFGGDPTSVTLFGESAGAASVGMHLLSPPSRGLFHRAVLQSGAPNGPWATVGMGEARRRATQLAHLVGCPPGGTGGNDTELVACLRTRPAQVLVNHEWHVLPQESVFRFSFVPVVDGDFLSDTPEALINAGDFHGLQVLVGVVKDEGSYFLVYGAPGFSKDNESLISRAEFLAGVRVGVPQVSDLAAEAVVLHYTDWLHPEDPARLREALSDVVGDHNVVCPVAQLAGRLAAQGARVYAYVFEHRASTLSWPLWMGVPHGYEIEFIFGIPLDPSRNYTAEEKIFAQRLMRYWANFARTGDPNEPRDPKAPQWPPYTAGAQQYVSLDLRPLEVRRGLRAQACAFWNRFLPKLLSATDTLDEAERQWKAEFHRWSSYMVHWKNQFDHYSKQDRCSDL
UniProt P22303, 32-614 Y164A: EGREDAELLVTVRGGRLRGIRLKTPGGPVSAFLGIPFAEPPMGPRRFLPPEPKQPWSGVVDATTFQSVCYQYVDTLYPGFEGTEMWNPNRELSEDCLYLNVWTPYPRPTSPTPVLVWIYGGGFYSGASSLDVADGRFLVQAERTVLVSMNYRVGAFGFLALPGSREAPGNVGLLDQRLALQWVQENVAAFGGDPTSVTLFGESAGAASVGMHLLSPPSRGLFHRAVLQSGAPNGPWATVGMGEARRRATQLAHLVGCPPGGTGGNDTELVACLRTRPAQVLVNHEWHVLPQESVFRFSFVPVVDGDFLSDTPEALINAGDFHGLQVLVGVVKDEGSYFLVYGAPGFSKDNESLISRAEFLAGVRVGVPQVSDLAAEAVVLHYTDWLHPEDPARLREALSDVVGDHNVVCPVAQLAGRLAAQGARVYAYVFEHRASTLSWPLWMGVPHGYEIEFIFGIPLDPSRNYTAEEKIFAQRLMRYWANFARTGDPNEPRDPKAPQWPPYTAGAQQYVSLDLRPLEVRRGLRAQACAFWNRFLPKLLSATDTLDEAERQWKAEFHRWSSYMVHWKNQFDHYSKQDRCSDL
UniProt P22303, 32-614 Y368A: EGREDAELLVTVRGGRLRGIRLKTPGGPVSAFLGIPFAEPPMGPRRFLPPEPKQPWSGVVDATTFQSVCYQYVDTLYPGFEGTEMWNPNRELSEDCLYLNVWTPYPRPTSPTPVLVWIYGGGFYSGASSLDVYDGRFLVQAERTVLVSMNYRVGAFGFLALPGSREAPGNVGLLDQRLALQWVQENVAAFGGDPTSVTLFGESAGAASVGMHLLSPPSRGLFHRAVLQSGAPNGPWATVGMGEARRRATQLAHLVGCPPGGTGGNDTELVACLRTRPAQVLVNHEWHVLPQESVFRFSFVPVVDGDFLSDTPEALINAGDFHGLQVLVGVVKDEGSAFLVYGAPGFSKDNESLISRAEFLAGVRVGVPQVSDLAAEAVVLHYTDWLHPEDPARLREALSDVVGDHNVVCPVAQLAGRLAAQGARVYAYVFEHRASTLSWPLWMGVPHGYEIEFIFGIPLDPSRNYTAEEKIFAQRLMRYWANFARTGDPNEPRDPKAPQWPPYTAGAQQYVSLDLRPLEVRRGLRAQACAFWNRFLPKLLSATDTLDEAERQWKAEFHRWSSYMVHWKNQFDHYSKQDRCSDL
UniProt P22303, 32-614 F369A: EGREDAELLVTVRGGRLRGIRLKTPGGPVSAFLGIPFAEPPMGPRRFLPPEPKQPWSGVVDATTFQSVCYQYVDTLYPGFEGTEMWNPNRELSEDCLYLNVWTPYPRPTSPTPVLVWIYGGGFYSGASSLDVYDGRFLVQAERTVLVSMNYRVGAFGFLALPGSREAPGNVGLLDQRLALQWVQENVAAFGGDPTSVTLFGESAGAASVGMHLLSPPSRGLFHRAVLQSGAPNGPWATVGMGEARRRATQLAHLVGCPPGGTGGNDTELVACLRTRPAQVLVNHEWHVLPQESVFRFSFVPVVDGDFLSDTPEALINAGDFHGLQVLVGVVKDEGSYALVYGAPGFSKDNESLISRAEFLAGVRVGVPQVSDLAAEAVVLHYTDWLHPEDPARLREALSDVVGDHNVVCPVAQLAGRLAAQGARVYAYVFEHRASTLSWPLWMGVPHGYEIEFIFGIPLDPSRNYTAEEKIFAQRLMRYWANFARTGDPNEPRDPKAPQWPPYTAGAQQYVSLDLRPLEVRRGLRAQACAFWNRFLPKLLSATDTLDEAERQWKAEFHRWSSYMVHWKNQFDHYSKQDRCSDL
UniProt P22303, 32-614 W117F: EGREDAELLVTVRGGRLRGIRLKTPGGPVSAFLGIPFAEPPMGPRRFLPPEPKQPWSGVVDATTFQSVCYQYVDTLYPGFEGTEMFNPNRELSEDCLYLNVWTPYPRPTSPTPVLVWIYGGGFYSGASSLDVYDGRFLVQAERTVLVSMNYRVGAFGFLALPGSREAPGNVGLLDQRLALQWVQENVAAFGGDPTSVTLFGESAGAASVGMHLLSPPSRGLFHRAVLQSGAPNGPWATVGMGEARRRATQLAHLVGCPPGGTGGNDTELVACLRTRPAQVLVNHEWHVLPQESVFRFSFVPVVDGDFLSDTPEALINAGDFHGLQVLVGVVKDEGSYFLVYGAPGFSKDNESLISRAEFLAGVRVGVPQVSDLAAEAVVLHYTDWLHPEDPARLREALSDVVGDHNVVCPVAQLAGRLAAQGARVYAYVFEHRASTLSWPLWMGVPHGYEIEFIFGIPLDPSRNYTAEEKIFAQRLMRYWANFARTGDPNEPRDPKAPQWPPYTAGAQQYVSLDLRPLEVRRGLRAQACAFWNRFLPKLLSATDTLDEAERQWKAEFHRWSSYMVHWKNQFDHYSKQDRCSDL
UniProt P22303, 32-614 Y368F: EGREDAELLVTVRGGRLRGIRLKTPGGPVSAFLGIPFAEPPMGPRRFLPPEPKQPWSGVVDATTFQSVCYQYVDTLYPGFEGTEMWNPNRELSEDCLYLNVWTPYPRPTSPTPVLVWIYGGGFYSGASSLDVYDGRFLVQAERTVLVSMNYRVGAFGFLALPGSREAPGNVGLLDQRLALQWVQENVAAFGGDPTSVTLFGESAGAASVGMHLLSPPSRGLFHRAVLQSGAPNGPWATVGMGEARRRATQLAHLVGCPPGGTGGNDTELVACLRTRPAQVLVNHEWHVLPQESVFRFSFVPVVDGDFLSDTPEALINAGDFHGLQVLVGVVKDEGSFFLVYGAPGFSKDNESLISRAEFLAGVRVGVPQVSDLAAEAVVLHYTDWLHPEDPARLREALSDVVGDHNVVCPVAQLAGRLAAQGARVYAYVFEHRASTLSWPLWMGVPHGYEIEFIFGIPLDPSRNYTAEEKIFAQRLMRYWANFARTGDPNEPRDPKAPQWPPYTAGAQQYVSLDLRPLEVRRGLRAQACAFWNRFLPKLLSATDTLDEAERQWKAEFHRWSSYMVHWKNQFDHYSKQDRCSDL
UniProt P22303, 32-614 Y164F: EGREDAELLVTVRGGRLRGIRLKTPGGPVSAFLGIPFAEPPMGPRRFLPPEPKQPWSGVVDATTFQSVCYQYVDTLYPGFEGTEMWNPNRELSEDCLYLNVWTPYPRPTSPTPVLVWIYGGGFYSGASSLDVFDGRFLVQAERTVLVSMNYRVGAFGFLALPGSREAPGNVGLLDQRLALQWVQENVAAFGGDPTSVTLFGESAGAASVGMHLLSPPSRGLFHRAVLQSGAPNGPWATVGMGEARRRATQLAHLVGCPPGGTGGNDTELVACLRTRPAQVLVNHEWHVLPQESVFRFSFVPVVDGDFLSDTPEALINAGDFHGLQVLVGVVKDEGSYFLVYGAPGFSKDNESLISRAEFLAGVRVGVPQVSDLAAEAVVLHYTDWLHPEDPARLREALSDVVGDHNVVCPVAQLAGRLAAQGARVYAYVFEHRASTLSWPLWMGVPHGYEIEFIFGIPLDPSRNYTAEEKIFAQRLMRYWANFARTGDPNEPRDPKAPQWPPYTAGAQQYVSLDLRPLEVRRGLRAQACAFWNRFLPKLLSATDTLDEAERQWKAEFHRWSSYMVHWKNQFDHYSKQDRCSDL
UniProt P22303, 32-614 E233A: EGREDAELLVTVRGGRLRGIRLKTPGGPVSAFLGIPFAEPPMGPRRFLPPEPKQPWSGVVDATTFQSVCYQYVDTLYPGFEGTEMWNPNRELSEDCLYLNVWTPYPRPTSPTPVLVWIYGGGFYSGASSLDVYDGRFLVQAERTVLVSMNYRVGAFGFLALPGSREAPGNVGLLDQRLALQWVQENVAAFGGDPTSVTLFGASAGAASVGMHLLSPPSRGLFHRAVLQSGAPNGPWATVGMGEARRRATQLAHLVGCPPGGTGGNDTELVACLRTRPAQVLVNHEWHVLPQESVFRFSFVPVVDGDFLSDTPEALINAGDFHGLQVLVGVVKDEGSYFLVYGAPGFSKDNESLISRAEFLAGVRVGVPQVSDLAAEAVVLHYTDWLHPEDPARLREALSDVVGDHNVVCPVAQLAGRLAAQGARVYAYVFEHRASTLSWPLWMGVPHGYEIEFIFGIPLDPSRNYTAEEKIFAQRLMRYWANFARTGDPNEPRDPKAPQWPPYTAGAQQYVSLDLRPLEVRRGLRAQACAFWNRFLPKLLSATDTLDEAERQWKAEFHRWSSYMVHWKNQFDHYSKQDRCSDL
UniProt P22303, 32-614 F326A: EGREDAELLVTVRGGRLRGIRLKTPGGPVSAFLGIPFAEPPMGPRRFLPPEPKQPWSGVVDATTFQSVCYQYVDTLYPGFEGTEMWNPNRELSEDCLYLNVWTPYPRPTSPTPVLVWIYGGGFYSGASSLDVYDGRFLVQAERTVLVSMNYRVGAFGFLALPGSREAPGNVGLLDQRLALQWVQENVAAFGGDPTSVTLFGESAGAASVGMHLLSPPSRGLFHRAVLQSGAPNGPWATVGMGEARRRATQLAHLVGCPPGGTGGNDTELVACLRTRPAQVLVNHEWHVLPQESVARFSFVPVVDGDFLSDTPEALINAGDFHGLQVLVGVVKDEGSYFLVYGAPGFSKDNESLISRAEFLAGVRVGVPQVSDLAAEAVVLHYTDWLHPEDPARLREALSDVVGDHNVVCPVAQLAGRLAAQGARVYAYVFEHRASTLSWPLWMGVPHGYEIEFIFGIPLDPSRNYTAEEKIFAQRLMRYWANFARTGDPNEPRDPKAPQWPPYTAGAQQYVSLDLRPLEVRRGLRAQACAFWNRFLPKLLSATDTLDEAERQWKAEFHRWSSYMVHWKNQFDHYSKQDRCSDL
UniProt P22303, 32-614 F328A: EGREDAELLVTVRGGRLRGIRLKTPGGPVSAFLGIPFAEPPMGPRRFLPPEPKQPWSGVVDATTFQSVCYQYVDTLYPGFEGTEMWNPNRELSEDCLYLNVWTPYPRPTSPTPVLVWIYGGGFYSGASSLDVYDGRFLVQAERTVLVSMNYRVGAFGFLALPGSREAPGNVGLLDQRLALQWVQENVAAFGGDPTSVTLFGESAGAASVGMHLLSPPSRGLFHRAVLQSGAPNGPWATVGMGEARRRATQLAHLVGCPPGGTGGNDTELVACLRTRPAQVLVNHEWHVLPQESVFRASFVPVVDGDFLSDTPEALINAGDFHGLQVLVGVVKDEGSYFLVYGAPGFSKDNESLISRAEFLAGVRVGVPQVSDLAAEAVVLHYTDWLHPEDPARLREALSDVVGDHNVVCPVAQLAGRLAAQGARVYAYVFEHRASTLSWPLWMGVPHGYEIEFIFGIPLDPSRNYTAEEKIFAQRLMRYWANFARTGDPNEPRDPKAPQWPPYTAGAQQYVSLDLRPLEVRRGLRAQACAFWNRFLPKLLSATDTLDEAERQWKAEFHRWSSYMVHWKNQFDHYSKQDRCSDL

Legend:
Type in all cases: biochemical
[1] = target: Wild Type HuAChE (Homo sapiens, UniProt P22303); test: HuAChE inhibition kinetics; conditions: read-out: Kd, noncovalent inhibition (competition with ATC)
[2] = target: W86A HuAChE (Homo sapiens, UniProt P22303, W117A); test: HuAChE inhibition kinetics; conditions: read-out: Kd, noncovalent inhibition (competition with ATC)
[3] = target: Y133A HuAChE (Homo sapiens, UniProt P22303, Y164A); test: HuAChE inhibition kinetics; conditions: read-out: Kd, noncovalent inhibition (competition with ATC)
[4] = target: Y337A HuAChE (Homo sapiens, UniProt P22303, Y368A); test: HuAChE inhibition kinetics; conditions: read-out: Kd, noncovalent inhibition (competition with ATC)
[5] = target: F338A HuAChE (Homo sapiens, UniProt P22303, F369A); test: HuAChE inhibition kinetics; conditions: read-out: Kd, noncovalent inhibition (competition with ATC)
[6] = target: W86F HuAChE (Homo sapiens, UniProt P22303, W117F); test: HuAChE inhibition kinetics; conditions: read-out: Kd, noncovalent inhibition (competition with ATC)
[7] = target: Y337F HuAChE (Homo sapiens, UniProt P22303, Y368F); test: HuAChE inhibition kinetics; conditions: read-out: Kd, noncovalent inhibition (competition with ATC)
[8] = target: Y133F HuAChE (Homo sapiens, UniProt P22303, Y164F); test: HuAChE inhibition kinetics; conditions: read-out: Kd, noncovalent inhibition (competition with ATC)
[9] = target: E202A HuAChE (Homo sapiens, UniProt P22303, E233A); test: HuAChE inhibition kinetics; conditions: read-out: Kd, noncovalent inhibition (competition with ATC)
[10] = target: F295A HuAChE (Homo sapiens, UniProt P22303, F326A); test: HuAChE inhibition kinetics; conditions: read-out: Kd, noncovalent inhibition (competition with ATC)
[11] = target: F297A HuAChE (Homo sapiens, UniProt P22303, F328A); test: HuAChE inhibition kinetics; conditions: read-out: Kd, noncovalent inhibition (competition with ATC)
[12] = target: D74N HuAChE (Homo sapiens, UniProt P22303, D105N); test: HuAChE inhibition kinetics; conditions: read-out: Kd, noncovalent inhibition (competition with ATC)
[13] = target: Y341A HuAChE (Homo sapiens, UniProt P22303, Y372A); test: HuAChE inhibition kinetics; conditions: read-out: Kd, noncovalent inhibition (competition with ATC)
[14] = target: F295A/F338A HuAChE (Homo sapiens, UniProt P22303, F326A/F369A); test: HuAChE inhibition kinetics; conditions: read-out: Kd, noncovalent inhibition (competition with ATC), no carbamylation
[15] = target: F295A/F338A/V407F HuAChE (Homo sapiens, UniProt P22303, F326A/F369A/V438F); test: HuAChE inhibition kinetics; conditions: read-out: Kd, noncovalent inhibition (competition with ATC)
[16] = target: F295L/F297V/Y337A HuAChE (Homo sapiens, UniProt P22303, F326L/F328V/Y368A); test: HuAChE inhibition kinetics; conditions: read-out: Kd, noncovalent inhibition (competition with ATC)
[17] = target: Y72N/Y124Q/W286A/ F295L/F297V/Y337A HuAChE (Homo sapiens, UniProt P22303, F326L/F328V/W317A/Y103N/Y155Q/Y368A); test: HuAChE inhibition kinetics; conditions: read-out: Kd, noncovalent inhibition (competition with ATC), no carbamylation
[18] = target: W86A/Y337A HuAChE (Homo sapiens, UniProt P22303, W117A/Y368A); conditions: read-out: Kd, noncovalent inhibition (competition with ATC)
[19] = target: Y72N HuAChE (Homo sapiens, UniProt P22303, Y103N); test: HuAChE inhibition kinetics; conditions: read-out: Kd, noncovalent inhibition (competition with ATC)
[20] = target: F295L/F297V HuAChE (Homo sapiens, UniProt P22303, F326L/F328V); test: HuAChE inhibition kinetics; conditions: read-out: Kd, noncovalent inhibition (competition with ATC)
[21] = target: F295A/F297A HuAChE (Homo sapiens, UniProt P22303, F326A/F328A); test: HuAChE inhibition kinetics; conditions: read-out: Kd, noncovalent inhibition (competition with ATC)
[22] = target: Y72N/Y124Q/W286A/ F295L/F297V/Y337A/ V407F HuAChE (Homo sapiens, UniProt P22303, F326L/F328V/V438F/W317A/Y103N/Y155Q/Y368A); test: HuAChE inhibition kinetics; conditions: read-out: Kd, noncovalent inhibition (competition with ATC), no carbamylation

## CC(C)c1ccc(NC(=O)Oc2ccc3c(c2)[C@]2(C)CCN(C)[C@@H]2N3C)cc1 [(+)-Cymserine, cymserine]
[1]
  Kd: 30 ± 7.6 µM
[2]
  Kd: 13 ± 5.8 µM
[3]
  Kd: 480 ± 190 µM
[4]
  Kd: 5 ± 1.3 µM
[5]
  Kd: 13.5 ± 1.4 µM

## CC(C)c1ccc(NC(=O)Oc2ccc3c(c2)[C@]2(C)CCN(C)[C@@H]2N3C)cc1 [(−)Cymserine, cymserine]
[1]
  Kd: 0.63 ± 0.07 µM
[2]
  Kd: 5.4 ± 1.2 µM
[6]
  Kd: 0.15 ± 0.05 µM
[3]
  Kd: 22 ± 10 µM
[4]
  Kd: 0.38 ± 0.09 µM
[7]
  Kd: 0.3 ± 0.03 µM
[5]
  Kd: 4 ± 1.8 µM
[8]
  Kd: 3.7 ± 1.3 µM
[9]
  Kd: 12 ± 5 µM
[10]
  Kd: 0.04 ± 0.01 µM
[11]
  Kd: 0.75 ± 0.14 µM
[12]
  Kd: 0.87 ± 0.35 µM
[13]
  Kd: 0.19 ± 0.05 µM
[14]
  Kd: 0.13 ± 0.03 µM
[15]
  Kd: 2.2 ± 0.5 µM
[16]
  Kd: 0.27 ± 0.08 µM
[17]
  Kd: 0.23 ± 0.05 µM
[18]
  Kd: 47 ± 12.7 µM
[19]
  Kd: 0.29 ± 0.11 µM
[20]
  Kd: 0.1 ± 0.005 µM
[21]
  Kd: 0.16 ± 0.03 µM
[22]
  Kd: 2 ± 0.4 µM
